Results taken from patent publication US7652028B2, “Indenoisoquinolinone analogs and methods of use thereof” (Inotek Pharmaceuticals Corporation, priority 2005, dated 2010).

Chains of the proteins cited; added tags and fusions are not shown.
UniProt P09874, whole entry: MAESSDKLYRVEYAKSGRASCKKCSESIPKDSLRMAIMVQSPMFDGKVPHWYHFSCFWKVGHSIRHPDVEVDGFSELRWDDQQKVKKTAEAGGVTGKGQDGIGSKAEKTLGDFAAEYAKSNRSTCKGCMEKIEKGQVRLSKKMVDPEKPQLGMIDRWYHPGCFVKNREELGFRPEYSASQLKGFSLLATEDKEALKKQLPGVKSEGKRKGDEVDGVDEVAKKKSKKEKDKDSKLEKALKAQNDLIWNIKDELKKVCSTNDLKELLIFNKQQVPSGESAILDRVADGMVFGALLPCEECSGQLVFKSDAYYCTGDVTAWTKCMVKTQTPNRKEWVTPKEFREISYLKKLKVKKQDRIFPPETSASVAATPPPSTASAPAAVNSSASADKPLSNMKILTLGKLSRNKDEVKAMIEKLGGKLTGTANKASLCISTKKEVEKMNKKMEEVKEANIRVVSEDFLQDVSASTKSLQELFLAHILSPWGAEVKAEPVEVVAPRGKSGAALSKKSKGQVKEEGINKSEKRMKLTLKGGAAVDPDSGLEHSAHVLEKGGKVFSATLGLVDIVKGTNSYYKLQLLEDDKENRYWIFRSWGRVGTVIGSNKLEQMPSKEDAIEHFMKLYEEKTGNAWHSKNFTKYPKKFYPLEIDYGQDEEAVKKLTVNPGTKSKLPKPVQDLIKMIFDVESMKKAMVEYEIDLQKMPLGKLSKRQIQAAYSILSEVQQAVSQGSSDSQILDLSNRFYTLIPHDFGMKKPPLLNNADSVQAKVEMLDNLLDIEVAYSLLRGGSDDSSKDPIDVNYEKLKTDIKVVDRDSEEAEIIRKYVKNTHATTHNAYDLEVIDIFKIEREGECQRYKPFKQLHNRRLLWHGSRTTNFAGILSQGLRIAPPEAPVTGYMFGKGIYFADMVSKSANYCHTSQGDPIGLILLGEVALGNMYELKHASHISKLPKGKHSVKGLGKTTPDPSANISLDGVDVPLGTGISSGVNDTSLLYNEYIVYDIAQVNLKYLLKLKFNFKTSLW
UniProt P11103, whole entry: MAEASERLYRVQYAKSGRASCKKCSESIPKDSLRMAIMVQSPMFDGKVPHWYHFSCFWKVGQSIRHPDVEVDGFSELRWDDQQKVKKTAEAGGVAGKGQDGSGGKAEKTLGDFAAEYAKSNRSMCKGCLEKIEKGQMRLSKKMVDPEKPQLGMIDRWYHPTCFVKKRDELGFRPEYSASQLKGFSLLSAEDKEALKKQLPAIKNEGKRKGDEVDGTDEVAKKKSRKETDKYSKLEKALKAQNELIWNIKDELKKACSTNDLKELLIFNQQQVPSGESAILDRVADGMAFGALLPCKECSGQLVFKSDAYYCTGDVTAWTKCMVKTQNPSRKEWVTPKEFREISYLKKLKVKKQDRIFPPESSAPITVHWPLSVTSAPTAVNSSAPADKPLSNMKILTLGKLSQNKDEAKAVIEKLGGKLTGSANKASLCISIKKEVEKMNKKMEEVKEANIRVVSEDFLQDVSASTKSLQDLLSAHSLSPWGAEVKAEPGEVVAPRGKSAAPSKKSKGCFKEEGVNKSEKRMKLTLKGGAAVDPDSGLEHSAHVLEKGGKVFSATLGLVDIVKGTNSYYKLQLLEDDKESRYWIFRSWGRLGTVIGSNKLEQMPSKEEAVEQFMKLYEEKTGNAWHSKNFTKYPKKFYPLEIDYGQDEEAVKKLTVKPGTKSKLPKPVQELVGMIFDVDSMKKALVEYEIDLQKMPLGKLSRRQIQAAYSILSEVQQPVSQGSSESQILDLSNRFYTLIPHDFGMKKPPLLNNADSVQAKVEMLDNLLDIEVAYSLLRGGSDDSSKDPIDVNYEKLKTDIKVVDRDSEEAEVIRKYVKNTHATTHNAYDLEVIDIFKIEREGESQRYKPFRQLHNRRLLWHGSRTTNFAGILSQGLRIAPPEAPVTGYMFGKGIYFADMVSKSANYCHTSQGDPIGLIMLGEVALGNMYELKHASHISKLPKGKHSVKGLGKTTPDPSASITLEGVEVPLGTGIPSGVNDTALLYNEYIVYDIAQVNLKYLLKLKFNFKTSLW

The molecules below were run against PARP (Homo sapiens, UniProt P09874) (assay: PARP activity in hydrogen peroxide-stimulated A549 cells, whole-cell based assay (3H-NAD+ incorporation)). Details: read-out: EC50 value, 15 min pretreatment (10 nM-300 nM), hydrogen peroxide-induced PARP activation, from dose-response curve.
Experimental: (§1) Human alveolar epithelial cells (A549), an adenocarcinoma cell line with the alveolar type 2 phenotype were cultured in […] medium supplemented with 10% fetal bovine serum. Cells were grown to 80% confluence in 12-well plates and pretreated with various concentrations (10 nM-300 nM) of an Indenoisoquinolinone Analog for 15 minutes. Hydrogen peroxide, a prototypical oxidant that induces DNA single strand breakage, was used to induce PARP activation. Hydrogen peroxide was diluted in culture media and added to the cells in a bolus of 20 μl. After 20 minutes of incubation, the medium was aspirated and 0.5 mL of assay buffer (56 mM HEPES pH 7.5, 28 mM KCl, 28 mM NaCl, 2 mM MgCl2, 0.01% w/v digitonin and 0.5 μCi/ml 3H-NAD^+) was added to cells. Following incubation in the assay buffer (15 minutes at 37° C.), PARP activity was measured. Cells were scraped from the plate, transferred to a 1.5 mL eppendorf tube and then added 200 μl of ice cold 50% w/v TCA. After 4 hours incubation at 4° C., samples were then spun (10 minutes at 10,000 g) and pellets washed twice with ice cold 5% w/v TCA and solubilized overnight in 250 μl 2% w/v SDS/0.1 N NaOH at 37° C. The contents of the tubes were added to 6.5 mL ScintiSafe Plus scintillation liquid (Fisher Scientific) and radioactivity was determined using a liquid scintillation counter (Wallac, Gaithersburg, Md.). […] EC50 values were determined from a dose-response curve. IC50 values were determined using a commercially available in vitro PARP-1 inhibition assay kit (Trevigen, Gaithersburg, Md., USA).

| Compound | EC50 |
| --- | --- |
| CN(C)Cc1cccc2c1Cc1c-2[nH]c(=O)c2ccccc12 | 10 nM |
| CCCN(CCC)Cc1ccc2c(c1)Cc1c-2[nH]c(=O)c2ccccc12 | 300 nM |
| O=c1[nH]c2c(c3ccccc13)Cc1cc(CNCCN3CCOCC3)ccc1-2 | 12 nM |
| O=c1[nH]c2c(c3ccccc13)Cc1c(CN(CCO)CCO)cccc1-2 | 275 nM |
| O=c1[nH]c2c(c3ccccc13)Cc1cc(CO)ccc1-2 | 100 nM |
| O=c1[nH]c2c(c3ccccc13)Cc1c(CN3CCOCC3)cccc1-2 | 85 nM |
| CN(C)Cc1ccc2c(c1)Cc1c-2[nH]c(=O)c2ccccc12 | 75 nM |
| O=c1[nH]c2c(c3ccccc13)Cc1c(CNCCN3CCOCC3)cccc1-2 | 90 nM |
| CCCN(CCC)Cc1cccc2c1Cc1c-2[nH]c(=O)c2ccccc12 | 15 nM |
| O=c1[nH]c2c(c3ccccc13)Cc1cc(CN(CCO)CCO)ccc1-2 | 285 nM |

What follows are molecules tested against PARP-1 (Homo sapiens, UniProt P09874) (assay: in vitro PARP-1 inhibition assay kit (Trevigen)). Details: read-out: IC50 value; commercially available in vitro PARP-1 inhibition assay kit (Trevigen).
Format: biochemical
Experimental: The potency of inhibition of purified PARP enzyme can be subsequently determined for selected Indenoisoquinolinone Analogs, and the potency is compared with that of 3-aminobenzamide, a prototypical benchmark PARP inhibitor. The assay is performed in 96 well ELISA plates according to instructions provided with a commercially available PARP inhibition assay kit (for example, from Trevigen, Gaithersburg, Md.).
as §1

| Compound | IC50 |
| --- | --- |
| O=c1[nH]c2c(c3ccccc13)Cc1c(CN3CC=C(c4ccc(F)cc4)CC3)cccc1-2 | 300 nM |
| CCN(CC)Cc1cccc2c1Cc1c-2[nH]c(=O)c2ccccc12 | 10 nM |
| O=c1[nH]c2c(c3ccccc13)Cc1c(CN3CCC(O)C3)cccc1-2 (stereo not shown) | 20 nM |
| CCCN(CCC)Cc1cccc2c1Cc1c-2[nH]c(=O)c2ccccc12 | 300 nM |

These molecules were tested against PARP (Mus musculus, UniProt P11103) (assay: PARP activity in hydrogen peroxide-stimulated murine RAW macrophages, whole-cell based assay (3H-NAD+ incorporation)). Details: read-out: EC50 value, hydrogen peroxide (0.5 mM) for 25 minutes after 1 hour pretreatment.
Experimental: The murine RAW macrophages (ATCC, American Type Culture Collection, Manassas, Va.) were grown in RPMI 1650 (Invitrogen Life Technologies; Carlsbad, Calif.) medium supplemented with 10% heat-inactivated FBS, 2 mM L-glutamine, and 100 U/ml of penicillin and streptomycin. Cells, between passages 5 and 15, were seeded at a density of 250,000 cells/well in 12 well plates and allowed to grow 48 hours before use. Growth medium was changed on the day of use. Cells were treated with an Indenoisoquinolinone Analog diluted in a growth medium supplemented with 10% fetal bovine serum (FBS) for 1 hour prior to the addition of hydrogen peroxide (0.5 mM) for a further 25 minutes. For the measurement of PARP activity, media was removed and replaced with 0.5 ml of the assay buffer (56 mM HEPES-pH 7.5, 28 mM KCl, 28 mM NaCl, 2 mM MgCl2, 0.01% digitonin, and 0.5 μCi/ml of 3H-NAD^+) for 20 minutes. After aspirating the assay buffer, cells were lysed and transferred to eppendorf tubes containing 250 μl of 50% ice-cold trichloroacetic acid (TCA), which were then placed at 4° C. for 4 hours. Samples were centrifuged at 10,000 g for 10 minutes and supernatant removed. The pellets were washed twice with 500 μl of ice-cold 5% w/v TCA. The pellets were then solubilized in 250 μl of NaOH (0.1 M) containing 2% SDS overnight at 37° C. and the PARP activity was then determined by measuring the radioactivity incorporated using a Wallac scintillation counter. The solubilized protein (250 μl) was mixed with 5 ml of scintillation fluid (ScintiSafe Plus, Fisher Scientific) before being counted for 3 minutes. EC50 values were determined from a dose-response curve.

| Compound | EC50 |
| --- | --- |
| CN(C)CCN1CCN(Cc2cccc3c2Cc2c-3[nH]c(=O)c3ccccc23)CC1 | 40 nM |
| CN(C)Cc1cccc2c1Cc1c-2[nH]c(=O)c2ccccc12 | 10 nM |
| CCN(C)Cc1cccc2c1Cc1c-2[nH]c(=O)c2ccccc12 | 8 nM |
| O=c1[nH]c2c(c3ccccc13)Cc1c(CN3CCCC(O)C3)cccc1-2 (stereo not shown) | 10 nM |
| O=c1[nH]c2c(c3ccccc13)Cc1cc(CN3CCC[C@@H]3CO)ccc1-2 | 20 nM |
| CC(C)N(Cc1cccc2c1Cc1c-2[nH]c(=O)c2ccccc12)C1CCCCC1 | 15 nM |
| CCN1CCN(Cc2ccc3c(c2)Cc2c-3[nH]c(=O)c3ccccc23)CC1 | 30 nM |
| O=c1[nH]c2c(c3ccccc13)Cc1cc(CNCCN3CCOCC3)ccc1-2 | 12 nM |
| CC(C)N(Cc1cccc2c1Cc1c-2[nH]c(=O)c2ccccc12)C(C)C | 20 nM |
| CNCc1cccc2c1Cc1c-2[nH]c(=O)c2ccccc12 | 8 nM |
| O=c1[nH]c2c(c3ccccc13)Cc1c(CN3CCCCC3)cccc1-2 | < 10 nM |
| O=c1[nH]c2c(c3ccccc13)Cc1cc(CN3CC[C@@H](O)C3)ccc1-2 [(IIa)(225)] | 40 nM |
| CN(CCO)Cc1cccc2c1Cc1c-2[nH]c(=O)c2ccccc12 | 9 nM |
| CC1CCN(Cc2cccc3c2Cc2c-3[nH]c(=O)c3ccccc23)CC1 | 30 nM |
| O=c1[nH]c2c(c3ccccc13)Cc1cc(CNCCCc3ccccn3)ccc1-2 | 45 nM |
| CCN(CC)Cc1cccc2c1Cc1c-2[nH]c(=O)c2ccccc12 | < 10 nM |
| O=c1[nH]c2c(c3ccccc13)Cc1c(CNCC3CCCCC3)cccc1-2 | < 10 nM |
| CN(Cc1cccc2c1Cc1c-2[nH]c(=O)c2ccccc12)C1CCCCC1 | 3 nM |
| O=c1[nH]c2c(c3ccccc13)Cc1cc(CN3CCCCC3)ccc1-2 | 25 nM |
| CN(CCc1ccccn1)Cc1cccc2c1Cc1c-2[nH]c(=O)c2ccccc12 | 40 nM |
| O=c1[nH]c2c(c3ccccc13)Cc1cc(CN3CCC(N4CCCCC4)CC3)ccc1-2 | 30 nM |
| O=c1[nH]c2c(c3ccccc13)Cc1c(CNC3CCCCCC3)cccc1-2 | < 10 nM |

| Compound | EC50 |
| --- | --- |
| O=c1[nH]c2c(c3ccccc13)Cc1cc(CN3CCC(c4ccccc4)CC3)ccc1-2 | < 10 nM |
| O=c1[nH]c2c(c3ccccc13)Cc1c(CN3CCC(CO)CC3)cccc1-2 | 10 nM |
| COCCNCc1cccc2c1Cc1c-2[nH]c(=O)c2ccccc12 | 8 nM |
| O=C1CCN(Cc2cccc3c2Cc2c-3[nH]c(=O)c3ccccc23)CC1 | 20 nM |
| CC(C)NCc1cccc2c1Cc1c-2[nH]c(=O)c2ccccc12 | < 5 nM |
| CN(Cc1ccco1)Cc1cccc2c1Cc1c-2[nH]c(=O)c2ccccc12 | 28 nM |
| O=c1[nH]c2c(c3ccccc13)Cc1c(CN3CCSCC3)cccc1-2 | 14 nM |
| O=c1[nH]c2c(c3ccccc13)Cc1c(CNC3CCCCC3)cccc1-2 | < 10 nM |
| O=c1[nH]c2c(c3ccccc13)Cc1c(CNC3CCC(O)CC3)cccc1-2 (stereo not shown) | 20 nM |
| O=c1[nH]c2c(c3ccccc13)Cc1cc(CN3CCN(CC4CCCCC4)CC3)ccc1-2 | 50 nM |
| CN(Cc1ccc2c(c1)Cc1c-2[nH]c(=O)c2ccccc12)C1CCCCC1 | 25 nM |
| O=c1[nH]c2c(c3ccccc13)Cc1cc(CN3CCSCC3)ccc1-2 | 50 nM |
| O=c1[nH]c2c(c3ccccc13)Cc1c(CNC3CCCC3)cccc1-2 | < 10 nM |
| CCCNCc1cccc2c1Cc1c-2[nH]c(=O)c2ccccc12 | < 5 nM |
| O=c1[nH]c2c(c3ccccc13)Cc1cc(CNCCCN3CCOCC3)ccc1-2 | < 10 nM |
| O=c1[nH]c2c(c3ccccc13)Cc1c(CN3CCC(N4CCCC4)CC3)cccc1-2 | 15 nM |
| CN(Cc1ccccc1)Cc1ccc2c(c1)Cc1c-2[nH]c(=O)c2ccccc12 | 30 nM |
| O=c1[nH]c2c(c3ccccc13)Cc1cc(CN3CCC[C@@H](O)C3)ccc1-2 | 15 nM |
| O=c1[nH]c2c(c3ccccc13)Cc1cc(CN3CCCC3)ccc1-2 | 20 nM |
| COC(=O)C(NCc1cccc2c1Cc1c-2[nH]c(=O)c2ccccc12)C(C)C (stereo not shown) | 50 nM |
| CCCCNCc1cccc2c1Cc1c-2[nH]c(=O)c2ccccc12 | 5.5 nM |
| CCOC(=O)CN1CCN(Cc2ccc3c(c2)Cc2c-3[nH]c(=O)c3ccccc23)CC1 | 50 nM |

| Compound | EC50 |
| --- | --- |
| O=c1[nH]c2c(c3ccccc13)Cc1c(CN(CCO)C3CCCCC3)cccc1-2 | < 10 nM |
| O=c1[nH]c2c(c3ccccc13)Cc1cc(CN3CC[C@@H](O)C3)ccc1-2 [(IIa)(221)] | 30 nM |
| CCNCc1cccc2c1Cc1c-2[nH]c(=O)c2ccccc12 | 5 nM |
| COCCN1CCN(Cc2ccc3c(c2)Cc2c-3[nH]c(=O)c3ccccc23)CC1 | 45 nM |
| CCOC1CCN(Cc2ccc3c(c2)Cc2c-3[nH]c(=O)c3ccccc23)CC1 | 15 nM |
| CCN(Cc1cccc2c1Cc1c-2[nH]c(=O)c2ccccc12)C1CCCCC1 | < 10 nM |
| O=c1[nH]c2c(c3ccccc13)Cc1cc(CNCCCn3ccnc3)ccc1-2 | 30 nM |
| O=c1[nH]c2c(c3ccccc13)Cc1c(CN3CC[C@@H](O)C3)cccc1-2 [(I)(246)] | 30 nM |
| O=c1[nH]c2c(c3ccccc13)Cc1cc(CN3CCN(CCO)CC3)ccc1-2 | 40 nM |
| O=c1[nH]c2c(c3ccccc13)Cc1c(CN3CCC3)cccc1-2 | 15 nM |
| COCCN(CCOC)Cc1ccc2c(c1)Cc1c-2[nH]c(=O)c2ccccc12 | 20 nM |
| O=c1[nH]c2c(c3ccccc13)Cc1c(CN3CCC(O)CC3)cccc1-2 | < 10 nM |
| O=c1[nH]c2c(c3ccccc13)Cc1cc(CNCCN3CCCCC3)ccc1-2 | 20 nM |
| CCCN(CCC)Cc1cccc2c1Cc1c-2[nH]c(=O)c2ccccc12 | 15 nM |
| CN1CCN(Cc2cccc3c2Cc2c-3[nH]c(=O)c3ccccc23)CC1 | 35 nM |
| O=c1[nH]c2c(c3ccccc13)Cc1cc(CN3CCC(N4CCCC4)CC3)ccc1-2 | 35 nM |
| CC(C)N(C)Cc1cccc2c1Cc1c-2[nH]c(=O)c2ccccc12 | 50 nM |
| O=c1[nH]c2c(c3ccccc13)Cc1cc(CN3CCC(O)CC3)ccc1-2 | 30 nM |
| O=c1[nH]c2c(c3ccccc13)Cc1c(CN3CCCC3)cccc1-2 | 12 nM |
| O=c1[nH]c2c(c3ccccc13)Cc1c(CN3CC[C@@H](O)C3)cccc1-2 [(I)(256)] | 50 nM |

Same assay, conditions: read-out: EC50 value, hydrogen peroxide (0.5 mM) for 25 minutes after 1 hour pretreatment, tested form: methanesulfonate (shown by the NMR sampl)

| Compound | EC50 |
| --- | --- |
| CCCN(C)Cc1cccc2c1Cc1c-2[nH]c(=O)c2ccccc12 | 3 nM |
